Amino acid sequences for entries named in this document (tags omitted). Residues count along the entry.
UniProt P00797, 67-406 limits assumed: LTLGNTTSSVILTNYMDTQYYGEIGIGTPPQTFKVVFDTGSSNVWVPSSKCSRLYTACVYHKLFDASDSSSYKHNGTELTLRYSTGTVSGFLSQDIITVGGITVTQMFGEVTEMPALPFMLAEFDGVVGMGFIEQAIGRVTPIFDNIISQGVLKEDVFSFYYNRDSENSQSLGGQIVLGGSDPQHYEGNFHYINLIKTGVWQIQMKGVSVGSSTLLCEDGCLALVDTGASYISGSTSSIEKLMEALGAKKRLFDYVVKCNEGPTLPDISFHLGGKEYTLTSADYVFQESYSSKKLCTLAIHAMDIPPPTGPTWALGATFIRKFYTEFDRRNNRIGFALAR

According to patent US5198426A:

Target: renin (Homo sapiens, UniProt P00797)
Test: in vitro renin inhibitory activity, radioimmunoassay for angiotensin I
Details: renin incubated for two hours at 37° with substrate angiotensinogen, angiotensin I measured by radioimmunoassay

Row | Compound | IC50 | IC50 (tested form: iodide)
1 | C=CC(=O)CC(O)C(CC1CCCCC1)NC(=O)C(NC(=O)[C@H](Cc1ccccc1)NS(=O)(=O)N1CCOCC1)C(=O)OC (stereo partly drawn) | 0.0364 µM | –
2 | CCC(O)CC(O)C(CC1CCCCC1)NC(=O)CNC(=O)[C@H](Cc1ccccc1)NS(=O)(=O)N1CCOCC1 (single isomer, unassigned) [drawing 46 (Fast isomer)] | > 0.1 µM | –
3 | COC(=O)C(NC(=O)[C@H](Cc1ccccc1)NS(=O)(=O)N1CCOCC1)C(=O)NC(CC1CCCCC1)C(O)CC(O)CCSC(C)C (single isomer, unassigned) [drawing 51 (Slow isomer)] | 0.00495 µM | –
4 | CCC(O)CC(O)C(CC(C)C)NC(=O)[C@H](Cc1c[nH]cn1)NC(=O)[C@H](Cc1ccccc1)NS(=O)(=O)N1CCOCC1 (stereo partly drawn) | 0.018 µM | –
5 | CCC(O)CC(O)C(CC1CCCCC1)NC(=O)C(NC(=O)[C@H](Cc1ccccc1)NS(=O)(=O)N1CCOCC1)C(=O)OC (single isomer, unassigned) [drawing 49 (Fast isomer)] | 0.0058 µM | –
6 | CCC(O)CC(O)C(CC1CCCCC1)NC(=O)CNC(=O)[C@H](Cc1ccccc1)NS(=O)(=O)N1CCOCC1 (single isomer, unassigned) [drawing 46 (Slow isomer)] | 0.0438 µM | –
7 | CC[N+](C)(C)CCC(O)CC(O)C(CC1CCCCC1)NC(=O)[C@H](Cc1c[nH]cn1)NC(=O)[C@H](Cc1ccccc1)NS(=O)(=O)N1CCOCC1 (stereo partly drawn) | – | 0.5 µM
8 | CCN(C)CCC(O)CC(O)C(CC1CCCCC1)NC(=O)[C@H](Cc1c[nH]cn1)NC(=O)[C@H](Cc1ccccc1)NS(=O)(=O)N1CCOCC1 (single isomer, unassigned) [drawing 40 (Slow isomer)] | 0.22 µM | –
9 | COC(=O)C(NC(=O)[C@H](Cc1ccccc1)NS(=O)(=O)N1CCOCC1)C(=O)NC(CC1CCCCC1)C(O)CC(O)CCSC(C)C (single isomer, unassigned) [drawing 51 (Fast isomer)] | 0.017 µM | –
10 | CCN(C)CCC(O)CC(O)C(CC1CCCCC1)NC(=O)[C@H](Cc1c[nH]cn1)NC(=O)[C@H](Cc1ccccc1)NS(=O)(=O)N1CCOCC1 (single isomer, unassigned) [drawing 40 (Fast isomer)] | 0.28 µM | –

More lines, in order of falling IC50, values ahead:

Row | IC50 | IC50 (tested form: iodide) | Compound
11 | 0.0021 µM | – | C=CC(O)CC(O)C(CC1CCCCC1)NC(=O)C(NC(=O)[C@H](Cc1ccccc1)NS(=O)(=O)N1CCOCC1)C(=O)OC (single isomer, unassigned)
12 | 0.00135 µM | – | C=CC[C@H](NC(=O)[C@H](Cc1ccccc1)NS(=O)(=O)N1CCNCC1)C(=O)NC(CC1CCCCC1)C(O)CC(O)CC (single isomer, unassigned)
13 | 0.00075 µM | – | CCC(O)CC(O)C(CC1CCCCC1)NC(=O)C(NC(=O)[C@H](Cc1ccccc1)NS(=O)(=O)N1CCOCC1)C(=O)OC (single isomer, unassigned) [drawing 49 (Slow isomer)]
14 | 0.00047 µM | – | C=CC[C@H](NC(=O)[C@H](Cc1ccccc1)NS(=O)(=O)N1CCN(C(=O)OC(C)(C)C)CC1)C(=O)NC(CC1CCCCC1)C(O)CC(O)CC (single isomer, unassigned)
15 | 0.00026 µM | – | C=CC[C@H](NC(=O)[C@H](Cc1ccccc1)NS(=O)(=O)N1CCOCC1)C(=O)NC(CC1CCCCC1)C(O)CC(O)C(C)C (single isomer, unassigned)
